Data: article PMC11324666, “Two novel in vitro assays to screen chemicals for their capacity to inhibit thyroid hormone transmembrane transporter proteins OATP1C1 and OAT4” (Archives of Toxicology, 2024)

Legend:
[1] = target: T1, OAT4 (Homo sapiens, UniProt Q9NSA0); assay: MDCK-OAT4 TH uptake assay with 125I-T4 tracer
T1 sequence (Q9NSA0 1-550): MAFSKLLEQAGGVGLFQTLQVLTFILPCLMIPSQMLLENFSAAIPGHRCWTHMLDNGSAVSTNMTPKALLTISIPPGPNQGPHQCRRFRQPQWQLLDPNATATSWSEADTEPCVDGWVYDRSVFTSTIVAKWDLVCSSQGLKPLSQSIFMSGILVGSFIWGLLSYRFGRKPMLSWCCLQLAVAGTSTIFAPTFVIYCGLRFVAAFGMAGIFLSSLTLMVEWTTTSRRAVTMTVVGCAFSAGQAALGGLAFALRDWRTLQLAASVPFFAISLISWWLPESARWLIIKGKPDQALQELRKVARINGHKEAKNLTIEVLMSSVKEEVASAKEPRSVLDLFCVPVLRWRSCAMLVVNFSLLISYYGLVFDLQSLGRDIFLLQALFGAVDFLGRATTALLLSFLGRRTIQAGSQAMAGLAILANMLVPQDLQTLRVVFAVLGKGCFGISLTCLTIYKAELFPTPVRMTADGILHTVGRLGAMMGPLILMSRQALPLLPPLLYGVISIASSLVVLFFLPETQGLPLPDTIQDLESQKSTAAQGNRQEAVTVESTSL

[2] = target: T2, OATP1C1 (Homo sapiens, UniProt Q9NYB5); assay: CHO-K1 OATP1C1 TH uptake assay with 125I-T4 tracer; settings: 10 nM T4, 30 min; for T4 uptake inhibition BMC20 (M), [CI]: concentration that inhibits 125I-T4 uptake by 20%, brackets = 95% CI
T2 sequence (Q9NYB5 1-712): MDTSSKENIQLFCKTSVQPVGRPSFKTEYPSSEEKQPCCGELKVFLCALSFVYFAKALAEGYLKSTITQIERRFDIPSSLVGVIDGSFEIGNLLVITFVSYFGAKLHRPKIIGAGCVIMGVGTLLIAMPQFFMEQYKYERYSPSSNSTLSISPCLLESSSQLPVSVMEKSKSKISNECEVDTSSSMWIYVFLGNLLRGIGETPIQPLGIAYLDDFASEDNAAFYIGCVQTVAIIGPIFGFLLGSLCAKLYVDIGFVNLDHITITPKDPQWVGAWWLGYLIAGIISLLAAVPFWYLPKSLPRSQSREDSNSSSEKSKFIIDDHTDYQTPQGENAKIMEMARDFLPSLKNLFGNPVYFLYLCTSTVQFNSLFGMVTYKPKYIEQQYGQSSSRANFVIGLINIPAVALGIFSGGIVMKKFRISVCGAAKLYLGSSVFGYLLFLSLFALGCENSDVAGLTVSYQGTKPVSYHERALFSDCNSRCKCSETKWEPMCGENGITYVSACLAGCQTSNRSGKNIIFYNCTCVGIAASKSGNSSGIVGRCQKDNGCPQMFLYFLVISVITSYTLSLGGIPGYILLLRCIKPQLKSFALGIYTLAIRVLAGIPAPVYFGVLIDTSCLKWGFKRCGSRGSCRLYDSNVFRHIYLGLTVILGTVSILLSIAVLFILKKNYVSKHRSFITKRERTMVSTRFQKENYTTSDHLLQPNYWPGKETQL

O=C(O)CSc1nnc(Br)n1-c1ccc(C2CC2)c2ccccc12 [Lesinurad, reference compound]
T4 uptake inhibition BMC20 (M), [CI] [1]: 3.23E−06 [2.26E−06; 4.61E−06] M | T4 uptake on co-exposure to known inhibitor [1]: decreased back to control concentrations

O=C(O)Cc1ccccc1Nc1c(Cl)cccc1Cl [Diclofenac]
T4 uptake inhibition BMC20 (M), [CI] [2]: 1.40E−06 [6.84E−07; 2.87E−06] M

O=S(=O)(c1ccc(O)cc1)c1ccc(O)cc1 [Bisphenol S, Bisphenol-S]
T4 uptake inhibition BMC20 (M), [CI] [2]: 3.38E−05 [7.87E−06; 1.45E−04] M | 125I-T4 uptake compared to the vehicle control (range finding) ([2]; single concentration 10 or 100 µM, below 80% = positive hit): below 80%
